Protein sequences, listed by entry. Tags and fused reporters are not part of them.
UniProt P32245, whole entry: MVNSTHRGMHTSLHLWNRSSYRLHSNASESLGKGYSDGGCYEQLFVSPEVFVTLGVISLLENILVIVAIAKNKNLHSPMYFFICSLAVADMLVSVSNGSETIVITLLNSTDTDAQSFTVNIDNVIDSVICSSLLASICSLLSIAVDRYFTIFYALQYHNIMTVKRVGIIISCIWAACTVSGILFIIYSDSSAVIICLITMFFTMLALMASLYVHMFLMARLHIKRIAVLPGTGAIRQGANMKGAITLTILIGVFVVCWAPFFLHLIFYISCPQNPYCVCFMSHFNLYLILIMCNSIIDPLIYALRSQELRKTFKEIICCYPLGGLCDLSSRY

In patent publication US9434764B2, “Skin care compositions and methods comprising selective agonists of melanocortin 1 receptor” (University of Cincinnati, priority 2012, dated 2016):

Molecular target: T1, hMC4R (Homo sapiens, UniProt P32245)
T1 construct: expressed in transfected cells
Test: cAMP stimulation in heterologous cells expressing human MC4R
Assay type: cell-based
Protocol: Receptor selectivity of peptide agonists for hMC1R was determined by stimulation of cAMP in heterologous cells expressing different human melanocortin receptors (MC1R, MC3R, MC4R, and MC5R).

- EC50: 1.69 nM
SMILES: NC(=O)[C@H](Cc1c[nH]c2ccccc12)NC(=O)[C@H](CCCN=C(N)N)NC(=O)[C@@H](Cc1ccccc1)NC(=O)[C@H](Cc1cnc[nH]1)NC(=O)CCCc1ccccc1 [LK-184, Ph(CH2)3CO-His-(D-Phe)-Arg-Trp-NH2]
